Compound activity as filed in PubChem.
NALP1 inh – inhibitors of NALP1 inflammasome in yeast; AID 2071; inhibition, % at 10 µM; actives 0.61% (n = 280,000); S. cerevisiae NALP1/ASC/caspase-1 growth, X-gal OD620, 72 h; in the data active = inhibition mostly above about 24%, no sharp cut-off; inactive = mostly below about 32%
ALR H2O2 inh – inhibitors of human ALR sulfhydryl oxidase, primary screen, biochemical, H2O2 detection, HRP-luminol luminescence, single point; FAD-linked sulfhydryl oxidase ALR (Homo sapiens), P55789; purified ALR, DTT oxidation; inhibition, % (concentration not given with the values); AID 485317, 2010; actives 3.8% (n = 290,000);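 active means mean and each replicate at 75% or more; inconclusive means only one of the two met; inactive means neither met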;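 further: stock transfer was 7.5 nL into about 7.5 µL; 0% = neutral wells and 100% = wells with inactivated enzyme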
Yeast UUG start – modulators of start codon recognition fidelity in yeast; AID 602363; activity score, % at 18.7 µM; S. cerevisiae UUG-firefly luciferase reporter, luminescence/redox ratio; 0.13% of 350,000 active;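 active = replicate mean at a twofold rise or more, about +100% in these data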;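 note: firefly luciferase made from a UUG start codon reports start codon fidelity; reporter light over untreated wells divided by growth signal over untreated wells; some hits fall short of that in this replicate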
HDAC3 inhib – human HDAC3 inhibition. O15379. recombinant HDAC3, fluorogenic peptide/trypsin coupled, fluorescence. inhibition, % at 8.3 µM. actives 0.15% (n = 320,000). AID 2718; in the data active = inhibition above about 26%, passing the limit was not always enough; inconclusive = no clear call, values can overlap the other calls
MC4R ag barr – human MC4R agonism via beta-arrestin; P32245; U2OS MC4R beta-arrestin complementation, luminescence; percent of melanotan II response, DMSO zero; activation, % at 8.9 µM; actives 0.98% (n = 360,000); AID 540308;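 active = activation above a per-plate cutoff, the mean activation of sample wells on that plate plus 3 SD, cut at about 8% in these data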
MC4R antag cAMP – human MC4R antagonism in cAMP assay. inhibition, % at 6.5 µM. actives 0.48% (n = 360,000). MC4R-expressing cells, MTII-stimulated cAMP, LANCE TR-FRET. P32245;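 active = inhibition above its plate's cutoff, the mean of tested wells on that plate plus 3 SD, cut at about 29% in these data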;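 note: 0% = Melanotan II alone and 100% = Melanotan II plus saturating MCL0020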
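Assay system: U2OS cells stably expressing human melanocortin 4 receptor (MC4R) / Dosing: 6.5 µM / Timing: compound 30 min, challenge 1 h, detection 1 h / Measured by: Eu-cAMP/anti-cAMP TR-FRET, emission 671 nm / Replicates: singlicate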
MC4R barr conf – human MC4R beta-arrestin agonism confirmation; activation, % at 8.9 µM; shares compounds with MC4R ag barr; AID 602192; actives 31% (n = 2,400); U2OS MC4R beta-arrestin recruitment, luminescence; scaled DMSO 0%, Melanotan II 100%;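 active = mean activation across replicates above the hit cutoff set in the earlier primary screen, cut at about 8% in these data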
MOR DOR agonist – counter-screen for MC4R agonists: agonists of mu-delta opioid heterodimer. shares compounds with MC4R ag barr. U2OS PathHunter beta-arrestin, beta-gal luminescence; percent of deltorphin B response, DMSO zero. activation, % at 9.2 µM. actives 5.8% (n = 2,400);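 active = mean activation across replicates exceeds the hit threshold derived in the earlier primary screen, cut at about 18% in these data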;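 note: 100% = deltorphin B at 0.9 µM final and 0% = DMSO alone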
* = called active by the depositor. This is a sample that favours compounds with a hit; in the whole collection about 4.2% have one here.

For N#Cc1ccccc1N/C=C/C(=O)c1ccc(Cl)cc1 the results were ALR H2O2 inh -0.4, Yeast UUG start -42.7, HDAC3 inhib 5.3, MC4R ag barr 12.6*, MC4R antag cAMP 2.9, MC4R barr conf 3.4 and MOR DOR agonist 2.9.
For C[C@@H]1CCCCO[C@@H](CN(C)S(=O)(=O)c2cn(C)cn2)[C@@H](C)CN([C@@H](C)CO)C(=O)c2cc(NC(=O)Nc3ccc4c(c3)OCO4)ccc2O1 the results were Yeast UUG start -2.4.
For CCOC(=O)CSc1nc2cc(OCC)ccc2cc1C#N the results were NALP1 inh -23.2, ALR H2O2 inh -4.5, Yeast UUG start -5.9, HDAC3 inhib -0.7, MC4R ag barr 30.8*, MC4R antag cAMP -1.8, MC4R barr conf 4.9 and MOR DOR agonist 9.7.
For CCOc1ccc2cc(C#N)c(SCC(=O)N3CCC(C)CC3)nc2c1 the results were NALP1 inh 2.5, ALR H2O2 inh -19.6, Yeast UUG start -21.4, HDAC3 inhib -5.2, MC4R ag barr -0.5 and MC4R antag cAMP 16.3.
Screening COc1ccccc1C#Cc1cnc2c(c1)C(=O)N([C@H](C)CO)C[C@@H](C)[C@H](CN(C)C(=O)CC1CC1)O2 returned Yeast UUG start 4.2.
For Cc1ccccc1N=CC1=C(O)c2ccccc2C1=O the results were NALP1 inh -20.3, ALR H2O2 inh -144.3, HDAC3 inhib 0.8, MC4R ag barr 5.9 and MC4R antag cAMP -4.2.
COc1ccc(N=CC2=C(O)c3ccccc3C2=O)c(OC)c1 was read as NALP1 inh 5.2, Yeast UUG start -45.8, HDAC3 inhib -2.7, MC4R ag barr 11.5*, MC4R antag cAMP -6.7, MC4R barr conf -0.1 and MOR DOR agonist 6.0.
Screening CCOC(=O)C(=CNc1ccc2c(c1)nnn2-c1ccc(Cl)cc1)C(=O)OCC returned NALP1 inh 25.0, ALR H2O2 inh -5.0, Yeast UUG start -12.7, HDAC3 inhib -1.1, MC4R ag barr 21.6*, MC4R antag cAMP 11.2, MC4R barr conf 23.4* and MOR DOR agonist 4.0.
CCOC(=O)C(=CNc1cc(C)nn1-c1ccc(C)cc1)C(=O)OCC was read as NALP1 inh 13.6, ALR H2O2 inh 3.6, Yeast UUG start -45.9, HDAC3 inhib -2.2, MC4R ag barr 2.6 and MC4R antag cAMP -5.6.
Cc1ccc(S(=O)(=O)N[C@H]2CC[C@H](CCn3cc(C4CCCCC4)nn3)O[C@H]2CO)cc1 was read as Yeast UUG start -12.0.
Cc1[nH]n(-c2ccccc2)c(=O)c1N=Nc1cccc(Cl)c1 was read as NALP1 inh 14.4, ALR H2O2 inh -0.7, Yeast UUG start -18.4, HDAC3 inhib -3.6, MC4R ag barr 0.7 and MC4R antag cAMP 14.8.
For Nc1c(N=Nc2cccc(Cl)c2)c(=O)[nH]n1-c1ccccc1 the results were NALP1 inh 1.4, ALR H2O2 inh -0.7, Yeast UUG start -15.9, HDAC3 inhib 0.0, MC4R ag barr 13.0*, MC4R antag cAMP 7.1, MC4R barr conf 6.4 and MOR DOR agonist 3.7.
`C[C@H](CO)N1C[C@H](C)[C@H](CN(C)C(=O)Nc2ccccc2)Oc2c(NS(=O)(=O)c3cccs3)cccc2C1=O` gave Yeast UUG start -1.5.
O=C(Nc1ccccc1F)N[C@H]1C=C[C@H](CC(=O)N2CCCCC2)O[C@@H]1CO was read as Yeast UUG start -2.3.
For COc1ccc(N=c2oc3c(OC)cccc3cc2C(=O)NCc2ccco2)c(OC)c1 the results were NALP1 inh -6.0, ALR H2O2 inh inconclusive, Yeast UUG start -7.1, HDAC3 inhib 1.5, MC4R ag barr 31.6*, MC4R antag cAMP 17.1, MC4R barr conf 12.8* and MOR DOR agonist 24.6*.

For convenience, 2 of the compounds above:
For N#Cc1ccccc1N/C=C/C(=O)c1ccc(Cl)cc1 the results were ALR H2O2 inh -0.4, Yeast UUG start -42.7, HDAC3 inhib 5.3, MC4R ag barr 12.6*, MC4R antag cAMP 2.9, MC4R barr conf 3.4 and MOR DOR agonist 2.9.
For C[C@@H]1CCCCO[C@@H](CN(C)S(=O)(=O)c2cn(C)cn2)[C@@H](C)CN([C@@H](C)CO)C(=O)c2cc(NC(=O)Nc3ccc4c(c3)OCO4)ccc2O1 the results were Yeast UUG start -2.4.
